Test results published in patent US4767770A, “Method of inhibiting aromatase” (Eli Lilly and Company, priority 1984, dated 1988).

Target: T1, aromatase (Rattus norvegicus, UniProt P22443)
T1 sequence (P22443 1-508): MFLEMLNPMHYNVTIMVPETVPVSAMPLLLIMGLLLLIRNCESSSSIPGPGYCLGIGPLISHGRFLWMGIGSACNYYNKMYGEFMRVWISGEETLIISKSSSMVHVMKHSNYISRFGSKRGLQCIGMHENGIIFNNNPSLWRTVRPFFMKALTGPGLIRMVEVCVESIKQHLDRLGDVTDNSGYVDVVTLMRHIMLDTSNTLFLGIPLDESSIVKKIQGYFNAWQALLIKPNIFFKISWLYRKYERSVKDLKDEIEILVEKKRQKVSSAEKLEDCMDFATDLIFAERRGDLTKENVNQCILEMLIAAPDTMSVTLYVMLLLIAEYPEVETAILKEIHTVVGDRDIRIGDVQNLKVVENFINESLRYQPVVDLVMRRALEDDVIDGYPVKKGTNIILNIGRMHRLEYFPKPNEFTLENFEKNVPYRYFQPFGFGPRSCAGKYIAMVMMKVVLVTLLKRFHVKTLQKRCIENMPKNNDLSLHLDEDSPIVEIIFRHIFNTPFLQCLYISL
Experiment: biochemical
Procedure: Aromatase Inhibition in the Rat
Ovarian Microsome Assay
aromatase activity when substrate concentration is 0.1 μM.

EC50: 26 nM
Compound: CC1CSC(N(Cc2cccnc2)c2ccc(Cl)cc2)=N1 (stereo not shown) [N--(4-chlorophenyl)-N--(4,5-dihydro-4-methyl-2-thiazolyl)-3-pyridinemethanamine]
